# According to PubChem BioAssay AID493160 (Sanford-Burnham Center for Chemical Genomics, 2011):
# By UniProt entry, the sequences of proteins in these tests, tags left out.
# UniProt Q2TB90, whole entry: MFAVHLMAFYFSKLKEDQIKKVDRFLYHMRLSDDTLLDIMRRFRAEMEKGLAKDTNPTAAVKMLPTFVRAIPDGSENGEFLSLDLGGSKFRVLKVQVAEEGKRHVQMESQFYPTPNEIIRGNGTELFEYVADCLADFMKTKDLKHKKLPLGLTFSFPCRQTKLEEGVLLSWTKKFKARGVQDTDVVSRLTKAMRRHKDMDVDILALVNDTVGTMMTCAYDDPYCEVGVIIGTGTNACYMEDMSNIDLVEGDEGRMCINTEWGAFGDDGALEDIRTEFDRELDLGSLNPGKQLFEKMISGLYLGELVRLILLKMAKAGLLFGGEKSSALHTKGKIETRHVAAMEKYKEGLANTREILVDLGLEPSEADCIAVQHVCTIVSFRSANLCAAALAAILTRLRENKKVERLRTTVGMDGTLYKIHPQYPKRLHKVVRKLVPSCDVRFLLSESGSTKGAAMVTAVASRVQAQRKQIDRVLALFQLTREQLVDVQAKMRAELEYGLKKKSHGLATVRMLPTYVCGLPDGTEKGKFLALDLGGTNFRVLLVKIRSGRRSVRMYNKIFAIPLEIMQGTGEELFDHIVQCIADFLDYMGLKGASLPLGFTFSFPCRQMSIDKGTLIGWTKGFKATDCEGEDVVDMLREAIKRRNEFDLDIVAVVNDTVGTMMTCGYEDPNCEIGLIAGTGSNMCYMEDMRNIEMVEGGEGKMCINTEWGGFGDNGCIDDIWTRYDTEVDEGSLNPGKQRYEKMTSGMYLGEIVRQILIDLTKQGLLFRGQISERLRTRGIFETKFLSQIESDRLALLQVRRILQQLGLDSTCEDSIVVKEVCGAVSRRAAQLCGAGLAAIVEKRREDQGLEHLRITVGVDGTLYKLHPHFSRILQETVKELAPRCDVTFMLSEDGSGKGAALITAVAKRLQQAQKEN
# Only a part is listed here, and it is no random draw. Activity calls are given as the source filed them.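 Rule for the calls: active = inhibition above about 35% when tested at 20 µM (limit read from the data); inactive = the rest.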
# Target: Hexokinase HKDC1 (Homo sapiens) (UniProt Q2TB90)
# Test: blockers of human HKDC1 enzyme activity – biochemical, fluorescence, uHTS, primary screen (AID 493160);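 note: plate controls were DMSO wells with enzyme for no effect and DMSO wells lacking enzyme for full effect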
# Conditions: recombinant HKDC1, G6PDH/diaphorase resazurin coupled fluorescence; at 20 µM; stronger effect = higher value
row,SMILES,inhibition
1,CCC(=O)N(c1ccccc1)C1(COC)CCN(CCc2cccs2)CC1,inactive: -0.88%
2,CCC(=O)N(c1ccccc1)C1(COC)CCN(CCn2nnn(CC)c2=O)CC1,inactive: 2.51%
